Earlier results on one molecule are cited in patent US10676746B2, “Methods for identifying therapeutic targets and treating monitoring cancers” (Fred Hutchinson Cancer Research Center, priority 2013, dated 2020).

One may read the IC50 as the concentration needed to halve the response being measured.

The test system of the data set is cancer cell lines. The conditions noted are these: read-out: median IC50, cited from earlier work.

Read-outs that look alike come from different tables or passages of the source.

As for `O=C1NC(=O)c2c1c(-c1ccccc1Cl)cc1[nH]c3ccc(O)cc3c21`, the IC50 by setting is: (p53 mutant SCC cells (n=34)) 5.34 µM; (p53 mutant, 499 cell lines excluding SCC lines) 12.8 µM.
